Legend:
EBP = EBP (Mus musculus, UniProt P70245); experiment: EBP enzymatic assay (GC/MS); assay type: biochemical; conditions: 10 μM, zymostenol 25 μM
EpiSC-derived OPCs = experiment: In vitro phenotypic screening of OPCs (MBP+ oligodendrocytes at 72 h); assay type: cell-based, mouse; conditions: ketoconazole 2.5 μM (maximally effective dose)
OPCs = experiment: GC/MS-based sterol profiling in OPCs; assay type: cell-based, mouse; conditions: 24 h treatment (siRNA 96 h)

By UniProt entry, the sequences of proteins in these tests, tags left out. Where a name states a change or a piece, a line headed by the entry shows the natural chain unless it says otherwise.
UniProt P70245: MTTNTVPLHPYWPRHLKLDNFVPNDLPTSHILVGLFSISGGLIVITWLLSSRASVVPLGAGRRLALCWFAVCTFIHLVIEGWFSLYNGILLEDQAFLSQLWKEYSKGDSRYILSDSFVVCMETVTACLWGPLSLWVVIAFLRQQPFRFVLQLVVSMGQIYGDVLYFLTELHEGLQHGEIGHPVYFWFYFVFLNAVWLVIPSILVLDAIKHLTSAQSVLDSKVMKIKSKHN

## Trans-U50488
EBP
  inhibition of EBP enzymatic activity: clear inhibition
EpiSC-derived OPCs
  oligodendrocyte formation in combination with ketoconazole: did not enhance differentiation above levels seen for ketoconazole alone
OPCs
  sterol levels / sterol intermediate accumulation in OPCs: induced accumulation of zymostenol and zymosterol and decreased basal sterol levels

Source: patent US20180228743A1, “COMPOUNDS AND METHODS OF PROMOTING MYELINATION” (Case Western Reserve University, priority 2016, published 2018)
